Assay results reported in patent publication US6916797B2, “α-arylethylpiperazine derivatives as neurokinin antagonists” (UCB, S.A., priority 2000, dated 2005).

Tested on: verapamil binding site of the L-type calcium channel
Test: Inhibition of [3H]D888 binding to the verapamil binding site of the L-type calcium channel (rat cerebral cortex membranes)
Settings: 10 μmol/l of test substance

O=C(O)CN1CCN(C(COCc2cc(C(F)(F)F)cc(C(F)(F)F)c2)c2ccc(Cl)c(Cl)c2)CC1 (single isomer, unassigned)
% inhibition of [3H]D888 binding to the verapamil binding site of the L-type calcium channel (tested form: 1 H2O): + (+: inhibition comprised between 20 and 50%)

O=C(O)CN1CCN(C(COCc2cc(C(F)(F)F)cc(C(F)(F)F)c2)c2cccc(Cl)c2)CC1 (single isomer, unassigned)
% inhibition of [3H]D888 binding to the verapamil binding site of the L-type calcium channel (tested form: 2 maleate): + (+: inhibition comprised between 20 and 50%)
